The text below walks through data of patent US7291732B2, “Isomeric fused pyrrolocarbazoles and isoindolones” (Cephalon, Inc., priority 1999, dated 2007).

Protein sequences, listed by entry. Tags and fused reporters are not part of them. Residues count along the entry.
UniProt P35968, 834-1162 limits assumed: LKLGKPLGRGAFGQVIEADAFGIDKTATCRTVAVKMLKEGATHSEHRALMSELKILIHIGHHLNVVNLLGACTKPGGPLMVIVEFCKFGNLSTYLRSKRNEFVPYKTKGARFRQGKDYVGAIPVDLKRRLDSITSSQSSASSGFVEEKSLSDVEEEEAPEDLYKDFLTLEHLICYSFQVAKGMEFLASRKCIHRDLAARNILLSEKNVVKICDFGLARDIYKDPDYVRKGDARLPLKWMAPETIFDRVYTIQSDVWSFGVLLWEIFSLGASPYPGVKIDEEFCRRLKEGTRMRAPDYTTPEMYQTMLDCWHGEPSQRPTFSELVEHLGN
UniProt P04629, 440-796 limits assumed: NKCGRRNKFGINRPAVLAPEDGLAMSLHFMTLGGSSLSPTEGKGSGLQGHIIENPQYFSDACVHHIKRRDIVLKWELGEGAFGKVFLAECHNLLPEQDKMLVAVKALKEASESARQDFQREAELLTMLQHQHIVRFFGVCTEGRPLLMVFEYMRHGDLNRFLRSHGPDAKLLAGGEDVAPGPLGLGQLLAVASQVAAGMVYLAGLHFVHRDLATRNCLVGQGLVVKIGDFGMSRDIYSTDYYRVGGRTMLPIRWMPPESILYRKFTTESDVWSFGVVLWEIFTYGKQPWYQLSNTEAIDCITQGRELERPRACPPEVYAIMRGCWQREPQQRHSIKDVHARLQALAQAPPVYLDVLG
UniProt P09619, 600-962 limits assumed: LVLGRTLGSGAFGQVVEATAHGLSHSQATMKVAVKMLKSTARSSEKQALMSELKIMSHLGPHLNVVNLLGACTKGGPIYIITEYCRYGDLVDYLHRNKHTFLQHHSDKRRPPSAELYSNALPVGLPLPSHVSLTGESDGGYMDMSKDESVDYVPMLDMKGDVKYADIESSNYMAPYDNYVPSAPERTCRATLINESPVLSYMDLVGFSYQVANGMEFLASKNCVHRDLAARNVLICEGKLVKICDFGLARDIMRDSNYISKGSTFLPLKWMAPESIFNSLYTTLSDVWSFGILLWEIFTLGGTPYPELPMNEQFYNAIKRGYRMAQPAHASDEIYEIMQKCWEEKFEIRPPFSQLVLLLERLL

For assay [1], the target named is baculovirus-expressed VEGF receptor (human flk-1, KDR, VEGFR2) kinase domain (Homo sapiens, UniProt P35968). Put plainly: VEGF receptor kinase activity inhibition, ELISA assay. The assay is classed as biochemical. The settings on record: read-out: VEGFR kinase IC50; 40 μM ATP; value printed without parentheses. As to the method: Isomeric fused pyrrolocarbazole and isoindolone compounds were examined for their inhibitory effects on the kinase activity of baculovirus-expressed VEGF receptor (human flk-1, KDR, VEGFR2) kinase domain using the procedure described for the trkA kinase ELISA assay described above. The kinase reaction mixture, consisting of 50 mM Hepes, pH 7.4, 40 μM ATP, 10 mM MnCl2, 0.1% BSA, 2% DMSO, and various concentrations of inhibitor, was transferred to PLC-γ/GST-coated plates. VEGFR kinase was added and the reaction was allowed to proceed for 15 min at 37° C. Detection of phosphorylated product was accomplished by addition of anti-phosphotyrosine antibody (UBI). A secondary enzyme-conjugated antibody was delivered to capture the antibody-phosphorylated PLC-γ/GST complex. The activity of the bound enzyme was measured via an amplified detection system (Gibco-BRL). Inhibition data were analyzed using the sigmoidal dose-response (variable slope) equation in GraphPad Prism Results are summarized in Table 6.

Assay [2] concerns the target baculovirus-expressed human trkA cytoplasmic domain (Homo sapiens, UniProt P04629). Put plainly: trkA tyrosine kinase activity inhibition, ELISA-based assay. The settings on record: 300 nM compound; 40 μM ATP; value printed in parentheses. A general note: ELISA stands for enzyme-linked immunosorbent assay.
Assay [3] deals with baculovirus-expressed PDGFβ receptor kinase domain (Homo sapiens, UniProt P09619). Put plainly: PDGF receptor kinase activity inhibition, ELISA assay. To be noted: 1 μM compound; 20 μM ATP; value printed in parentheses.

pIC50: −log10 of the molar value.

For orientation: pIC50 means −log10 of the IC50, conventionally taken in molar units. Turning to `COc1ccc2c(c1)CCc1c3c(c4c([nH]c5ccccc54)c1-2)C(=O)NC3=O`, the negative logarithm of the IC50 (pIC50) in assay [1] is 6.37. The “trkA (% inhibition @ 300 nM)” value in assay [2] is listed as “(7) %”. In assay [3], the “PDGFRβ (% inhibition @ 1 μM)” value was “(15) %”.

As for `O=C1NCc2c3c(c4[nH]c5ccccc5c4c21)-c1ccccc1OC3`, in assay [1], the pIC50 was 5.83. Also, the “trkA (% inhibition @ 300 nM)” value in assay [2] is “(15) %”. For the same compound, the “PDGFRβ (% inhibition @ 1 μM)” value in assay [3] is “(1) %”.

As for `O=C1NCc2c3c(c4[nH]c5ccccc5c4c21)-c1ccccc1C3`, the negative logarithm of the IC50 (pIC50) in assay [1] was 6.78. Further, in assay [2], the “trkA (% inhibition @ 300 nM)” value is given as “(38) %”. Further, in assay [3], the “PDGFRβ (% inhibition @ 1 μM)” value is given as “(19) %”.
